# AlphaSeq binding of Ab-14 light chain variants to a spike HR2 peptide

Antigen: PDVDLGDISGINAS, a 14-residue peptide of the SARS-CoV-2 spike HR2 region.

Parent scFv Ab-14: VH joined to VL by a (GGGGS)3 linker. Changes lie in the light chain CDRs alone.
VH: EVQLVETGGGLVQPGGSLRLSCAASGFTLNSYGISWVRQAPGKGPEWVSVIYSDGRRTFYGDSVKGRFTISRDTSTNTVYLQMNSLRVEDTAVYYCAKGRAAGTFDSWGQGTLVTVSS
VL: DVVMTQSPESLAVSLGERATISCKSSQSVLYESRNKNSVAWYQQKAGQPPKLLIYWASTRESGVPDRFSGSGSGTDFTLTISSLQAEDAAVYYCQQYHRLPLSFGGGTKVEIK

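Variants in AAYL50 differ from the parent at up to three CDR positions; double and triple changes were sampled at random. In AlphaSeq, yeast of one mating type display the scFv and yeast of the other type display the target. Mating (16 h, 30 °C) was followed by selection of diploids and sequencing of their barcodes. Scores were corrected for input abundance and mapped to Kd with protein pairs of known affinity run in the same pool. Mating was done three times.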

Substitutions are numbered in sequence along the VL above, starting at 1 (not Kabat). This list gathers variants with a substitution at S62 (VL, numbered from residue 1). The Kd shown is the geometric mean over detected replicates; a lower Kd is a better binder. A pair that was not seen in any replicate is written "nd"; this usually means weak binding, but a binder can also be missed. As a blank, each scFv also met three strains without target: over library AAYL50, 18% of these pairings were detected, typically at 15 µM and seldom below 970 nM. Also given: how often the same scFv was detected with the empty control strains.

changes	Kd (apparent)	detected	control signals
E32L+S33F+S62Q	nd	0 of 3	3 of 9
N37P+S62G+L100Y	34 µM	3 of 3	6 of 9
S28N+S62K+Q95V	nd	0 of 3	1 of 9
T59C+S62Y	27 nM	3 of 3	2 of 9
N35T+S62W+L102D	87 nM	3 of 3	0 of 9
Y31A+S62C	8.6 nM	3 of 3	1 of 9
Q27Y+E32I+S62V	2.5 µM	3 of 3	3 of 9
S26F+S33C+S62W	nd	0 of 3	3 of 9
R34F+N37A+S62M	79 nM	3 of 3	4 of 9
E32S+S58H+S62R	67 nM	3 of 3	0 of 9
K36R+S62N	nd	0 of 3	1 of 9
V29K+W56H+S62E	610 pM	3 of 3	5 of 9
A57V+R60K+S62D	65 nM	3 of 3	1 of 9
S62G+Q96G+R99S	98 nM	3 of 3	2 of 9
N37Q+S62D+S103C	88 nM	3 of 3	7 of 9
K36T+S62H+L100K	71 nM	3 of 3	1 of 9
E32F+V39E+S62C	58 µM	1 of 3	5 of 9
S62A+Y97A+H98K	3.1 µM	1 of 3	2 of 9
V29M+N37V+S62Q	93 nM	3 of 3	0 of 9
S62I	5.0 nM	3 of 3	2 of 9
S38M+R60L+S62A	nd	0 of 3	1 of 9
S25F+S62P+Y97E	nd	0 of 3	0 of 9
S62L+Q96H	13 nM	3 of 3	0 of 9
E61F+S62C+S103G	4.1 µM	2 of 3	1 of 9
S58L+R60H+S62H	nd	0 of 3	1 of 9
V29H+S62H+P101A	11 nM	3 of 3	1 of 9
A40E+S62R+R99M	47 µM	1 of 3	0 of 9
R34H+S62W+S103M	15 nM	3 of 3	2 of 9
N35Y+R60Y+S62P	nd	0 of 3	3 of 9
S28D+S62D	2.0 nM	3 of 3	1 of 9
S62L+Y97I	330 nM	3 of 3	7 of 9
V39E+T59S+S62I	nd	0 of 3	0 of 9
S38E+A40F+S62T	4.3 µM	2 of 3	2 of 9
L30G+S33K+S62W	2.5 µM	3 of 3	4 of 9
A40Y+T59A+S62C	14 µM	1 of 3	1 of 9
Y31L+S38G+S62I	89 nM	3 of 3	2 of 9
E61R+S62W+L102T	50 µM	1 of 3	0 of 9
S38C+A40H+S62R	nd	0 of 3	0 of 9
V39G+S62D+H98W	42 µM	3 of 3	4 of 9
N35P+S62D	nd	0 of 3	0 of 9
K36Q+S62H+Y97E	nd	0 of 3	2 of 9
S25G+N35F+S62C	490 nM	3 of 3	4 of 9
V29F+A57Q+S62V	77 nM	3 of 3	1 of 9
W56R+S62W+R99T	25 nM	3 of 3	0 of 9
N35G+A57Q+S62N	2.6 µM	2 of 3	0 of 9
S25W+A57H+S62C	nd	0 of 3	0 of 9
V29Y+S62V+H98C	15 nM	3 of 3	0 of 9
S25F+N35W+S62G	11 nM	3 of 3	2 of 9
R60P+S62C+P101Y	68 µM	1 of 3	1 of 9
W56V+S62H+S103E	nd	0 of 3	0 of 9
Y31Q+N35L+S62D	4.9 nM	3 of 3	2 of 9
A57P+S62I+Q96G	8.1 µM	1 of 3	4 of 9
Q27R+S62C+Y97H	400 nM	3 of 3	2 of 9
K36Q+S62Q	1.9 nM	3 of 3	4 of 9
K36F+E61T+S62P	4.0 nM	3 of 3	4 of 9
S25G+W56M+S62F	3.5 nM	3 of 3	0 of 9
L30R+S58T+S62N	450 nM	1 of 3	0 of 9
W56Q+S62H	2.1 nM	3 of 3	1 of 9
S62E+Q96E	21 nM	3 of 3	0 of 9
V39K+S62T+P101H	nd	0 of 3	2 of 9
S28N+S62M+L100Y	nd	0 of 3	0 of 9
V29W+S33Y+S62C	83 nM	3 of 3	0 of 9
S38G+V39P+S62G	nd	0 of 3	0 of 9
T59W+S62N+S103M	110 nM	3 of 3	0 of 9
L30M+S62Q+L102R	4.4 µM	1 of 3	2 of 9
S25F+S62T+L100Y	750 pM	3 of 3	7 of 9

For reference, 11 entries of the list once more:

changes,Kd (apparent),detected,control signals
A40E+S62R+R99M,47 µM,1 of 3,0 of 9
V39E+T59S+S62I,nd,0 of 3,0 of 9
W56V+S62H+S103E,nd,0 of 3,0 of 9
A57V+R60K+S62D,65 nM,3 of 3,1 of 9
V39G+S62D+H98W,42 µM,3 of 3,4 of 9
V29Y+S62V+H98C,15 nM,3 of 3,0 of 9
N37Q+S62D+S103C,88 nM,3 of 3,7 of 9
S38M+R60L+S62A,nd,0 of 3,1 of 9
E32F+V39E+S62C,58 µM,1 of 3,5 of 9
W56R+S62W+R99T,25 nM,3 of 3,0 of 9
S25F+S62P+Y97E,nd,0 of 3,0 of 9

The measurements come from Engelhart et al. 2022 (doi:10.1038/s41597-022-01779-4) through the FLAb antibody collection.